Holding throughout (assay type): in vivo
The subject of test [1] is mice (C57BL/6). The test is described as follows: Fecal weight as indicator for colonic motility. Particulars: 3 mg/kg intraperitoneal, vs vehicle control mice. How it is done:
(§1) In the test, mice (C57BL/6) were used, and they were housed and fed in the same manner as in Example 1.
Subsequently, PYY3-36 (3 mg/kg) was intraperitoneally administered to the mice, and the fecal weight was measured in a time-dependent manner (1, 2, 3, and 4 hours after the administration). At the same time, the fecal weight was also measured for control mice to which only a vehicle was administered.

Test [2] has as its system mice (C57BL/6). The test is described as follows: Castor oil-induced defecation and diarrheal symptom. On the procedure: as §1
Subsequently, each of PYY3-36 (3 mg/kg) and other test agents (loperamide (1 mg/kg) (Comparative example 1) and atropine (10 mg/kg) (Comparative example 2)) was intraperitoneally administered to the mice, and at 15 minutes after the administration, castor oil (0.3 ml/animal) was orally administered to the mice. The fecal weight and diarrhea score (normal: 0, soft feces: 1, watery feces: 2) were measured in a time-dependent manner (1, 2, and 4 hours after the administration). At the same time, the same measurement was carried out for mice to which only a vehicle was administered and castor oil was not administered.

For test [3], the system named is mice (C57BL/6). The test is described as follows: Motility of stomach and small intestine (charcoal transit, GI motility). Particulars: 0.3 mg/kg or 3 mg/kg intraperitoneal; 30 minutes after oral charcoal; vs vehicle control mice; FIG. 1. On the procedure: First, mice (C57BL/6) to be used in the test were prepared. Mice were individually housed in cages with a floor mat in an animal room with a controlled environment (temperature: 23° C., relative humidity: 55%, lighting hours: from 7:00 till 19:00) with ad libitum access to rodent chow (CE-2, Nippon CLEA) and drinking water.
Subsequently, NPY (0.3 mg/kg or 3 mg/kg) or PYY3-36 (0.3 mg/kg or 3 mg/kg) was intraperitoneally administered to the mice, and the motility of stomach and small intestine was measured. At the same time, control mice (vehicle) to which only a vehicle was administered were prepared, and the same test was carried out using these mice. The motility of stomach and small intestine was measured as follows. That is, charcoal powder was suspended in a 0.5% methyl cellulose solution and the resulting suspension was orally administered to the mice. After 30 minutes, the distance that the charcoal entering into the stomach traveled in the intestinal tract was measured by dissection. At the same time, the total length of the small intestine from the pyloric portion of stomach to the beginning of the cecum was also measured, and the ratio (%) of the distance that the charcoal traveled to the total length of the small intestine was plotted in a graph as a GI (gastrointestinal) motility.

With PYY3-36, in the test on mice (C57BL/6) [1] (1, 2, 3 and 4 hours after administration, FIG. 2), the “fecal weight over time” value was “significantly lower than that of the control mice”. Besides, the “total fecal weight in 4 hours after administration” value with mice (C57BL/6) [1] (FIG. 3) is on record as “a significant difference was observed”. The “maximum diarrhea score observed until 4 hours after castor oil” value in the test with mice (C57BL/6) [2] (3 mg/kg intraperitoneal 15 minutes before castor oil, score normal 0, soft feces 1, watery feces 2, vs vehicle plus castor oil control mice, FIG. 5) was “significantly inhibited”. Moreover, the “fecal weight after castor oil treatment” value in the test with mice (C57BL/6) [2] (3 mg/kg intraperitoneal 15 minutes before oral castor oil 0.3 ml/animal, 1, 2 and 4 hours, vs vehicle plus castor oil control mice, FIG. 4) is reported as “significantly lower than that of the control mice”. Also, in the test with mice (C57BL/6) [2] (PYY3-36 3 mg/kg vs loperamide 1 mg/kg and atropine 10 mg/kg, intraperitoneal, castor oil model), the “inhibitory effect on diarrheal symptom in comparison with loperamide and atropine” value is given as “high inhibitory effect”. The “GI (gastrointestinal) motility: ratio of distance the charcoal traveled to total length of small intestine” value in the test with mice (C57BL/6) [3] is reported as “lower than that of the control mice”.

The values above are taken from US20090105136A1, “NPY Y2 Agonist for Use as Therapeutic Agent for Disease Accompanied by Diarrhea” (priority 2005, published 2009).
